Measured values: PubChem BioAssay AID504775 (Broad Institute, 2011)
Only a part is listed here, and it is no random draw. The source made the active and inactive calls.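 The calls were made as follows: active = mean replicate activation of at least 60% and every replicate at or above 60%; inconclusive = mean or all-replicate condition met, but not both; inactive = mean below 60% and not all replicates reaching 60%.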

Experiment: enhancers of HDL lipid transfer via mSR-BI – ldlA[mSR-BI] CHO cells, DiI fluorescence, primary screen (AID 504775);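 also: 0% = median plate neutral-control signal and 100% = twice that signal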
Settings: DiI-HDL uptake fluorescence, 3 h, at 12.5 µM, active compounds read high, 100 = double the neutral-control signal
In short: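 Test system: SR-BI-overexpressing, LDLR-lacking CHO cells; Medium: Ham's F12 with 0.5% BSA, HEPES 25 mM, pH 7.4; Schedule: 3 h, 37 °C; Technique: bottom-read fluorescence, 550/595 nm.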

| Structure (SMILES) | activation |
| --- | --- |
| CCC(=O)N(c1ccccc1)C1(COC)CCN(CCc2cccs2)CC1 | inactive: 9.44% |
| CCC(=O)N(c1ccccc1)C1(COC)CCN(CCn2nnn(CC)c2=O)CC1 | inactive: 15.2% |
